Results reported in patent US12594281B2, “Pharmaceutical dosage forms and methods of use” (EMALEX BIOSCIENCES, INC., priority 2024, dated 2026).

Assay: Phase 1 absorption, metabolism and excretion study of [14C]-ecopipam, single oral capsule dose
Format: in vivo, human
Conditions: single oral dose 200 mg [14C]-ecopipam HCl

## CN1CCc2cc(Cl)c(O)cc2[C@H]2c3ccccc3CC[C@@H]21 [ecopipam, (−)-trans-6,7,7a,8,9,13b-hexahydro-3-chloro-2-hydroxy-N-methyl-5H-benzo [d]-naphtho-[2,1-b]azepine]
  Percentage of dose excreted in urine as analyte (geometric mean): 0.115%
